Laboratory results reported in article PMC6839854, “Inactive USP14 and inactive UCHL5 cause accumulation of distinct ubiquitinated proteins in mammalian cells” (PLoS ONE, 2019).

Chains of the proteins cited; added tags and fusions are not shown. Lines headed by an entry give the natural chain unless they say otherwise; changes in a name come on top.
UniProt P54578: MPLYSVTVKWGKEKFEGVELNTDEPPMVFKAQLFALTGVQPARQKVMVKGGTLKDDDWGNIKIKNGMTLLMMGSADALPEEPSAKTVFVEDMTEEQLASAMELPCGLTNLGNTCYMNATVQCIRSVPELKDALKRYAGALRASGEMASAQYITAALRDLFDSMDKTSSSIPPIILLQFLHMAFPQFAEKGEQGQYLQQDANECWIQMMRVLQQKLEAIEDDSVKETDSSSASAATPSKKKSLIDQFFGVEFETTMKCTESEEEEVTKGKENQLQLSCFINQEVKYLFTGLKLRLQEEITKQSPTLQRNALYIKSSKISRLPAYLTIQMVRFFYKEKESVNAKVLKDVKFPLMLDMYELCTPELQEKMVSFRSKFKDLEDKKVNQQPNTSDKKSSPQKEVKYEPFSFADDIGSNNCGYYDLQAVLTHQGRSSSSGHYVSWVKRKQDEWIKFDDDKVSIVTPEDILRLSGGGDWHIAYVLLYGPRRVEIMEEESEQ

Target: T1, USP14 (Homo sapiens, UniProt P54578)
T1 construct: Full length USP14; with ubiquitin vinyl sulfone-treated 26S proteasome (26S-VS)
Experiment: ubiquitin-rhodamine […] hydrolysis assay with purified USP14 and Ub-VS-treated […] proteasome
Format: biochemical

`Cc1cc(C(=O)CN2CCCC2)c(C)n1-c1ccc(F)cc1` [IU1] showed an IC50 of 5.51 µM.
